The list shows a part of the results, in another mix than the full data. Results filed as inconclusive are left out. Active and inactive are the calls of the source. Calls come from the whole dose curve; as a rule, active = well fitted inhibition curve with a large enough effect; inconclusive = small, poorly fitted or top-dose-only effect; inactive = no such curve, though single readings can be large or run the other way.
biological target: Lysine-specific demethylase 5B (Homo sapiens) (UniProt Q9UGL1); test: Primary screen for KDM5B Histone Demethylases FDH-coupled qHTS; conditions: FDH-coupled NADH fluorescence (FDH is formaldehyde dehydrogenase); at 57.7 µM (top of the series); note: 0% is about no effect; nearly all actives have a fitted effect of over 70% in size
Text: Assay Submitter (PI): Qin Yan, Ph.D. (Yale University) and Xiaodong Cheng, Ph.D. (MD Anderson) This project was funded as part of the NCI NEXT Program and Chemical Biology Consortium (CBC) The histone demethylases, KDM5A and KDM5B catalyze the demethylation of lysine 4 on histone H3 (H3K4me3/2). They are overexpressed in a variety of cancers and have been implicated in cancer cell growth, metastasis, drug resistance, and tumor growth. KDM5A is amplified and overexpressed in breast and gastric cancer; and is translocated in leukemia. While KDM5B is highly expressed in human mammary tumors and breast cancer cell lines, but not in normal adult breast tissue. Moreover, knockdown of KDM5B leads to upregulation of tumor suppressor genes, including BRCA1. The goal of this project is to employ qHTS to identify selective small molecule inhibitors of KDM5A/B demethylase activity to better understand the role of KDM5 in cancer and to develop novel therapies. We employed an FDH-coupled assay previously reported by Sakurai et al. to monitor in vitro KDM5 demethylase activity. Compounds showing dose response inhibition are re-acquired, validated, and tested for non-specific interference with the formaldehyde dehydrogenase (FDH) counterscreen. […]
Materials: 1536-well Black, solid bottom, medium binding assay plate is purchased from Greiner Bio-one. […] The assay plate is incubated for 10 min at room temperature followed by addition of 1uL substrate mix (buffer + 100uM ascorbic acid, 50uM ferrous ammonium sulfate, 12.5uM H3K4Me3, 25uM a-ketoglutarate, 0.25 mM NAD+, 0.25 U/mL formaldehyde dehydrogenase using the FRD yielding a total reaction volume of 4 uL. Initial fluorescence (Read1) is detected using the PerkinElmer ViewLux plate reader equipped with 340 nm excitation and 450 nm emission filters. The final fluorescence (Read2) signal is obtained after 30 min of room temperature incubation. Delta RFU is calculated (Read2 - Read1) and is used to generated dose response curves.

Protein sequences, listed by entry. Tags and fused reporters are not part of them.
UniProt Q9UGL1, whole entry: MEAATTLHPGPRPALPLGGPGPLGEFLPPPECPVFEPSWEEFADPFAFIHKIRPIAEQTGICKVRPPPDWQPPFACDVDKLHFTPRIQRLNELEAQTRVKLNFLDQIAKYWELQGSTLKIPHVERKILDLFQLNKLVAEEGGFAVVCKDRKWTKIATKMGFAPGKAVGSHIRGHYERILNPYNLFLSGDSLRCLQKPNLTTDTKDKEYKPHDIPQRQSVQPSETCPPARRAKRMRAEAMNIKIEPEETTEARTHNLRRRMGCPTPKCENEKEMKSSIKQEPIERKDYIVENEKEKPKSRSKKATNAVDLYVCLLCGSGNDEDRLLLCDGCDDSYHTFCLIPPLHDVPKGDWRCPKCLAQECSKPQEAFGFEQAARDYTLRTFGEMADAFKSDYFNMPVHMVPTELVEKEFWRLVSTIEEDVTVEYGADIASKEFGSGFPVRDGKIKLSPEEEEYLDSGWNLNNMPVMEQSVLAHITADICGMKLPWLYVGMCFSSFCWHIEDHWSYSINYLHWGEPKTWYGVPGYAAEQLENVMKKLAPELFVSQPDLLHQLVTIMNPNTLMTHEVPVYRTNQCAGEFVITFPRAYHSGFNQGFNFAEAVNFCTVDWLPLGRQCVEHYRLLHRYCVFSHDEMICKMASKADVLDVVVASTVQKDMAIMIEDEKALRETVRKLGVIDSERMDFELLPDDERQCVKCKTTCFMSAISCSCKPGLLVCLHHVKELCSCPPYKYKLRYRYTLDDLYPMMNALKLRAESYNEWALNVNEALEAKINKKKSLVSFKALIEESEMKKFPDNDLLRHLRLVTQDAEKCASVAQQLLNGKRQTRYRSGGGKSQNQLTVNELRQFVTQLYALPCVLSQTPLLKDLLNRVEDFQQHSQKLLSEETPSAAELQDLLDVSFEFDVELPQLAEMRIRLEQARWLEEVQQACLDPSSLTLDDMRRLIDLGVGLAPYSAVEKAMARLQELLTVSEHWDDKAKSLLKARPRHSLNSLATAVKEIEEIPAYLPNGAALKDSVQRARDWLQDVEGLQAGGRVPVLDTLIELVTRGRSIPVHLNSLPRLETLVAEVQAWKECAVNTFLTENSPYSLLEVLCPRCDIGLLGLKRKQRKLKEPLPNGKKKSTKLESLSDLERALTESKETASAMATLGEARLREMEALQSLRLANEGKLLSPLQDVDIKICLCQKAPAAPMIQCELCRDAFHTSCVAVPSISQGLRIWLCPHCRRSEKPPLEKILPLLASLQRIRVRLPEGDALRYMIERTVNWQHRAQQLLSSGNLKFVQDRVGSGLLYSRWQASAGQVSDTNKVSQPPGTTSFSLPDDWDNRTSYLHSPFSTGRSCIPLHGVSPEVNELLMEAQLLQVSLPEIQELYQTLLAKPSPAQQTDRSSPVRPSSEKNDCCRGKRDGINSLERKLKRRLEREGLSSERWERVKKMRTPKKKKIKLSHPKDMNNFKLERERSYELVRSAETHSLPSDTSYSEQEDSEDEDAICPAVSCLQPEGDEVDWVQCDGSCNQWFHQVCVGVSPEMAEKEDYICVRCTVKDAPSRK

CCCCCOc1ccc(NP(C)(=O)Oc2ccc(Cl)cc2Cl)cc1 (stereo not drawn) was tested. Which activity change, negative = inhibition did it give?
Its activity change, negative = inhibition is inactive: -0.953%.

Which activity change, negative = inhibition does the source give for CCc1ccc(OP(C)(=O)N2CCN(c3ccc([N+](=O)[O-])cc3)CC2)cc1 (stereo not drawn) here?
The activity change, negative = inhibition was inactive: -0.904%.

How did the activity change, negative = inhibition turn out when O=[N+]([O-])c1cc([N+](=O)[O-])c(-c2cnn(-c3ccccc3)c2)c([N+](=O)[O-])c1 was run?
Its activity change, negative = inhibition is inactive: -8.11%.

Reference: PubChem BioAssay AID1347165 (National Center for Advancing Translational Sciences (NCATS), 2019)
